Experiment: Water-Solubility Test
Settings: in water at room temperature

Formoterol Fumarate
Water Solubility @ 25° C. (mg/ml as Base): 1.81 mg/ml as Base
